System: sAPPβ release in SH-SY5Y cells
Assay: sAPPβ release assay
Type: cell-based
Conditions: Homo sapiens, 17 h, compounds incubated 17 h, MSD detection
Procedure: Thaw cells and seed at a conc. of around 10000 cells/well in DMEM/F-12 with Glutamax, 10% FCS and 1% non-essential amino acids to a 384-well tissue culture treated plate, 100 μL cell susp/well. […] The cell medium was removed, followed by addition of 30 μL compound diluted in DMEM/F-12 with Glutamax, 10% FCS, 1% non-essential amino acids and 1% PeSt to a final conc. of 1% DMSO. The compounds were incubated with the cells for 17 h (overnight) at 37° C., 5% CO2. Meso Scale Discovery (MSD) plates were used for the detection of sAPPβ release. MSD sAPPβ plates were blocked in 1% BSA in Tris wash buffer (40 μL/well) for 1 h on shake at r.t. and washed 1 time in Tris wash buffer (40 μL/well). 20 μL of medium was transferred to the pre-blocked and washed MSD sAPPβ microplates, and the cell plates were further used in an ATP assay to measure cytotoxicity. The MSD plates were incubated with shaking at r.t. for 2 h and the media discarded. 10 μL detection antibody was added (1 nM) per well followed by incubation with shaking at r.t. for 2 h and then discarded. 40 μL Read Buffer was added per well and the plates were read in a SECTOR Imager.

SMILES	IC50 [nM]
CO[C@H]1CC[C@]2(CC1)Cc1ccc(-c3cncc(Cl)c3)cc1[C@@]21N=C(C)C(N)=N1 (single isomer, unassigned) [Example 20e Isomer 1]	0.57
CO[C@H]1CC[C@]2(CC1)Cc1ccc(-c3cc(Cl)cc(C#N)c3)cc1[C@@]21N=C(C)C(N)=N1 (single isomer, unassigned) [Example 20d Isomer 1]	0.26
CO[C@H]1CC[C@]2(CC1)Cc1ccc(-c3cc(F)cc(C#N)c3)cc1C21N=C(C)C(N)=N1 (single isomer, unassigned; isomer 1) [Example 75, 3-[(1r,4r)-4″-Amino-4-methoxy-5″-methyl-3′H-dispiro[cyclohexane-1,2′-indene-1′,2″-imidazol]-6′-yl]-5-fluorobenzonitrile]	2.1
COc1cccc(-c2ccc3c(c2)C2(CCO3)N=C(C)C(N)=N2)c1F (stereo not drawn) [Example 9, 6-(2-Fluoro-3-methoxyphenyl)-5′-methylspiro[chroman-4,2′-imidazol]-4′-amine]	2450

Further lines, results first:

IC50 [nM]	SMILES
2.6	CO[C@H]1CC[C@]2(CC1)Cc1ccc(-c3ccc(F)c(C#N)c3)cc1C21N=C(C)C(N)=N1 (stereo partly drawn) [Example 20g, 5-[(1r,4r)-4″-Amino-4-methoxy-5″-methyl-3′H-dispiro[cyclohexane-1,2′-indene-1′,2″-imidazol]-6′-yl]-2-fluorobenzonitrile]
284	COC1CCC2(CC1)Oc1ccc(-c3cccc(Cl)c3)cc1C21N=C(C)C(N)=N1 (stereo not drawn) [Example 30b, 5′-(3-Chlorophenyl)-4-methoxy-5″-methyldispiro[cyclohexane-1,2′-[1]benzofuran-3′,2″-imidazol]-4″-amine]

From patent US10231967B2, “Compounds and their use as BACE inhibitors” (ASTRAZENECA AB, priority 2010, dated 2019)
